Assay results reported in article PMC3969666 (Pharmacognosy Magazine, 2014).

Legend:
[1] = ref 7 (Li et al., 2011); cited from earlier work
Caco-2 cell = Caco-2 cell transport of PR; assay type: in vitro ADME; details: unpublished

apically loaded PR retained on the apical side (Caco-2 cell): about 100%
Substance: Phillyrin [PR]
absorption in the gastrointestine [1]: neither carried out in the gastrointestine
